Patent US8163732B2, “Tricyclic heteroaryl compounds useful as inhibitors of Janus kinase” (Vertex Pharmaceuticals Incorporated, priority 2005, dated 2012)

By UniProt entry, the sequences of proteins in these tests, tags left out. Where a name states a change or a piece, a line headed by the entry shows the natural chain unless it says otherwise.
UniProt O60674: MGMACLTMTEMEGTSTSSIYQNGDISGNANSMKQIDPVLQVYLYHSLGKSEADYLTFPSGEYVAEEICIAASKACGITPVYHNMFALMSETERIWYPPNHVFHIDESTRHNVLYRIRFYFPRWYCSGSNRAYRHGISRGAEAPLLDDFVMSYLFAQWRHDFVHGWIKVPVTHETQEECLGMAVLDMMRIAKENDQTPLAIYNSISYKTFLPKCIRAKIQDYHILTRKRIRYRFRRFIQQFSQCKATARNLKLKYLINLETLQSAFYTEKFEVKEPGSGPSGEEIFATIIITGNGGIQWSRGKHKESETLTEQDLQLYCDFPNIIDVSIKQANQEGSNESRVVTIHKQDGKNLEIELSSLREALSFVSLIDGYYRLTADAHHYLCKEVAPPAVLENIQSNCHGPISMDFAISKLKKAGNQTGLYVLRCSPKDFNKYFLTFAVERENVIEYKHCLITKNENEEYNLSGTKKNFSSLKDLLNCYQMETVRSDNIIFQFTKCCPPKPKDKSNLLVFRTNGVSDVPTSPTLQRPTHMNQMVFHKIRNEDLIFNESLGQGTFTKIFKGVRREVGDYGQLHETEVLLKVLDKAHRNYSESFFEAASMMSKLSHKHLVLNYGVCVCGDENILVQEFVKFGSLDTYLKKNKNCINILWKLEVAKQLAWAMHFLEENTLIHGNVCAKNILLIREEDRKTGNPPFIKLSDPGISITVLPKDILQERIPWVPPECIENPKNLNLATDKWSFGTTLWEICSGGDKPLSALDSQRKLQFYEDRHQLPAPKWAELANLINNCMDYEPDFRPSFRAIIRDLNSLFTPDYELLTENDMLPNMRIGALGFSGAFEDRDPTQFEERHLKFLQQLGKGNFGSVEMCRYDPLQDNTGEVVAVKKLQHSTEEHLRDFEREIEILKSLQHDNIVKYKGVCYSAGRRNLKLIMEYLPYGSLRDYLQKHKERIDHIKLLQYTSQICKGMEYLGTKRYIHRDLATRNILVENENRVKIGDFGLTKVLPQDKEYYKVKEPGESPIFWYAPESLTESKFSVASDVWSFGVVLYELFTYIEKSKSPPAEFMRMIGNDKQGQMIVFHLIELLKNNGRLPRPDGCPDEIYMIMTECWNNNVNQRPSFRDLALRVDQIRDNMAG

Target: JAK-2 (Homo sapiens, UniProt O60674)
Experiment: JAK-2 inhibition assay
Type: biochemical

- Ki: < 250 nM
Compound: O=C1Nc2ccccc2-c2ccnc3[nH]cc(c23)C1c1ccc(O)cc1 (stereo not shown) [Compound 125]
